In PMC7902338 (Pharmaceutical Research, 2021):
Where two headings read alike, the source gives them in different places.

Legend:
[1] = system: cation transporters (OCTs, MATEs); conditions: C57BL/6 wild-type mice, assuming average mouse organ volumes from literature
[2] = mean ± SD
human OCT2 = conditions: cited from earlier work
[3] = single oral or intravenous dose; cited from earlier work
[4] = system: murine P-glycoprotein (P-gp/ABCB1); conditions: cited from earlier work
[5] = C57BL/6 female mice, co-administration of unlabeled metoclopramide (5 mg/kg), 15 min

| SMILES | Maximum amount of radioactivity in the liver [1] | Percentage of unchanged [^11C]metoclopramide in liver ([2]; C57BL/6 female mice, baseline, 15 min after radiotracer injection) [%] | Percentage of unchanged [^11C]metoclopramide in liver ([2]; C57BL/6 female mice, cimetidine (150 mg/kg), 15 min) [%] | Percentage of unchanged [^11C]metoclopramide in liver [2, 5] [%] | Percentage of unchanged [^11C]metoclopramide in urine [2, 5] [%] | Percentage of unchanged [^11C]metoclopramide in liver ([2]; C57BL/6 female mice, sulpiride (25 mg/kg), 15 min) [%] | Percentage of unchanged [^11C]metoclopramide in liver ([2]; FVB male/female Slc22a1/2^(−/−) mice, 15 min) [%] | Percentage of unchanged [^11C]metoclopramide in liver ([2]; FVB male/female wild-type mice, 15 min) [%] | Share of cellular uptake related to OCT2 activity (human OCT2; human OCT2 transfected cell line) [%] | Substrate of human OCT2 (human OCT2; in vitro) | Fraction of dose excreted in urine in the form of metabolites [3] | Substrate of murine P-gp [4] |
| --- | --- | --- | --- | --- | --- | --- | --- | --- | --- | --- | --- | --- |
| CCN(CC)CCNC(=O)c1cc(Cl)c(N)cc1O[11CH3] [[^11C]metoclopramide] | ~36 % of the injected dose | 57 ± 4 | 96 ± 2 | 76 ± 4 | 43 ± 7 | 76 ± 7 | 74 ± 9 | 69 ± 6 |  |  |  |  |
| CCN(CC)CCNC(=O)c1cc(Cl)c(N)cc1OC [metoclopramide] |  |  |  |  |  |  |  |  | 24 | substrate | up to 60% | weak substrate |
